The results in this text go back to ChEMBL document CHEMBL5154649, “Design, synthesis, and characterization of novel aminoalcohol quinolines with strong in vitro antimalarial activity” (Eur J Med Chem, 2022).

Chains of the proteins cited; added tags and fusions are not shown. Lines headed by an entry give the natural chain unless they say otherwise; changes in a name come on top.
UniProt Q12809: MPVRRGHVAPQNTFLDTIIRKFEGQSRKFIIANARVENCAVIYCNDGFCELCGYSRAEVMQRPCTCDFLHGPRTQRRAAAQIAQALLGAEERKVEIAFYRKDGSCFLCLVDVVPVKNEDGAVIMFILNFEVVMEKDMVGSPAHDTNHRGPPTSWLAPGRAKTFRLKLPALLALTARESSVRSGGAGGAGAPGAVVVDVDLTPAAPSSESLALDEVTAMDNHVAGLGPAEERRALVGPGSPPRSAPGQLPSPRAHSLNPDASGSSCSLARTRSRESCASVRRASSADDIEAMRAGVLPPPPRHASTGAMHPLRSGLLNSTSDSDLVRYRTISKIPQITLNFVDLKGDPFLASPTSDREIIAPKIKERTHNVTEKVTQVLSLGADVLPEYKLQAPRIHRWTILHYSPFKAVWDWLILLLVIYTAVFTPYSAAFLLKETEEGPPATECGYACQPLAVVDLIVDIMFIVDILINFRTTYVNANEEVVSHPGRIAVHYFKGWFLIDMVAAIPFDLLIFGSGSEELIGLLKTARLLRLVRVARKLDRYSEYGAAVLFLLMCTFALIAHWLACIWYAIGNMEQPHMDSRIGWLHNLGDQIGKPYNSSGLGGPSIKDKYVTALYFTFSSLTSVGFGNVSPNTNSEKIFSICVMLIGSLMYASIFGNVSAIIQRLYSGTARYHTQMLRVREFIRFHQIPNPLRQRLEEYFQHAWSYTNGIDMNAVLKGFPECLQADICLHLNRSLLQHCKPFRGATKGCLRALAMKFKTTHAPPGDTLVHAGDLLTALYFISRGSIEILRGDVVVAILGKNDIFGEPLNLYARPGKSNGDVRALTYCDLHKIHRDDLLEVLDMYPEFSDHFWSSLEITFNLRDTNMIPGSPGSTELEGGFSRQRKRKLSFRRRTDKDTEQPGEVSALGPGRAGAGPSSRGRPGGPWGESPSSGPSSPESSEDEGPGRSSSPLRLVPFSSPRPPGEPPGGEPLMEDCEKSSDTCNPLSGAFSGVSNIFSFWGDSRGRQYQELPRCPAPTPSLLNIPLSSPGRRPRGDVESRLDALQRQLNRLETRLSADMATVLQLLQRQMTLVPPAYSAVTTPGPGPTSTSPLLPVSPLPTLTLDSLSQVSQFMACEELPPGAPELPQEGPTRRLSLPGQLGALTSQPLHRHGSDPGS

The assay concerns the target Voltage-gated inwardly rectifying potassium channel KCNH2 (Homo sapiens, UniProt Q12809). In words: Inhibition of hERG channel expressed in CHO cells at holding potential of -80 mV by whole cell patch clamp method. It is filed as toxicity, cell-based.

`O[C@H](c1cc(C(F)(F)F)nc2c(C(F)(F)F)cccc12)[C@@H]1CCCCN1` [(R,S)-MEFLOQUINE] yielded an IC50 of 13.6 µM.

Turning to `O[C@@H](c1cc(C(F)(F)F)nc2c(C(F)(F)F)cccc12)[C@H]1CCCCN1` [(S,R)-MEFLOQUINE], 15 µM corresponded to half-maximal inhibition (IC50).
